The text below walks through data of article PMC10901556, “Conservation of Affinity Rather Than Sequence Underlies a Dynamic Evolution of the Motif-Mediated p53/MDM2 Interaction in Ray-Finned Fishes” (Molecular Biology and Evolution, 2024).

The experiment has as its target MDM2_(H.sapiens) SWIB domain (Homo sapiens (human)). The experiment can be described thus: fluorescence polarisation; displacement: complex of MDM2 (0.2-2 μM) and FITC-p53TAD_(human)^15–26 (15 nM) displaced by increasing unlabeled p53TAD peptide or p53TAD^full-length; KD calculated from IC50 (Nikolovska-Coleska et al. 2004); 20 mM sodium phosphate pH 7.4, 150 mM NaCl, 1 mM TCEP.

In the case of DSPDFEDLWNSIV (N-terminal acetylated) [Clupea harengus p53TADP2 p53TAD^15–27], the Kd was 290 nM.
